Values of other authors as cited in article PMC5578202, “Bioaccessibility, Intestinal Permeability and Plasma Stability of Isorhamnetin Glycosides from Opuntia ficus-indica (L.)” (International Journal of Molecular Sciences, 2017).

Conditions: ref Ortega et al. [39]; cited from earlier work

**Q.** Which “Recovery after a simulated digestion process” value does the source give for myricetin-glucoside here?
**A.** 44.2%
